What was measured:
[1] = target: P1-Bio3-MBP95C-QSY7-Bio-X NTA (Escherichia coli, UniProt P0AEX9, D121C); assay: Sensor sensitivity to different sugars, unmodulated sensor; conditions: response to 1 mM maltose defines 100%; for Δ FL 100 μM: 100 μM sugar; for Δ FL 1 mM: 1 mM sugar
[2] = target: P1-Bio3-MOD2-MBP95C-QSY7-Bio-X NTA (Escherichia coli, UniProt P0AEX9, D121C); assay: Sensor sensitivity to different sugars, MOD2-modulated sensor; conditions: response to 1 mM maltose defines 100%; for Δ FL 100 μM: 100 μM sugar; for Δ FL 1 mM: 1 mM sugar
[3] = system: AFF 532-labeled α-TNTscFv-Leu145Cys protein; assay: TNT sensor titration with explosives (loss of FRET fluorescence at 600 nm); conditions: specificity and cross-reactivity against TNT structural analogues
Native MBP = Native MBP (Escherichia coli, UniProt P0AEX9); conditions: cited from earlier work

In the case of `OC[C@H]1O[C@@H](O[C@H]2[C@H](O)[C@@H](O)C(O)O[C@@H]2CO)[C@H](O)[C@@H](O)[C@H]1O` (stereo partly drawn), the “Δ FL 100 μM” value [1] is reported as less than 1%, the “Δ FL 1 mM” value [1] is reported as less than 1% and the “Δ FL 100 μM” value [2] is reported as less than 1%. For the same compound, the “Δ FL 1 mM” value [2] was less than 1%.

With `Cc1c(N)cc([N+](=O)[O-])cc1[N+](=O)[O-]` the “sensor response in terms of absolute fluorescence change” value [3] was “significantly less response”.

For β-Cyclodextrin, the “Δ FL 100 μM” value [1] is listed as 14%, the “Δ FL 1 mM” value [1] is listed as 58% and the Kd (Native MBP) is listed as 1800 nM. The “Δ FL 100 μM” value [2] was 28% and the “Δ FL 1 mM” value [2] was 73%.

With `O=C[C@H](O)[C@@H](O)[C@H](O)[C@H](O)CO` the “Δ FL 100 μM” value [1] was less than 1%, the “Δ FL 1 mM” value [1] was less than 1% and the “Δ FL 100 μM” value [2] was less than 1%. For the same compound, the “Δ FL 1 mM” value [2] was less than 1%.

In the case of `O=C[C@H](O)[C@@H](O)[C@@H](O)[C@H](O)CO`, the “Δ FL 100 μM” value [1] is reported as less than 1%, the “Δ FL 1 mM” value [1] is reported as less than 1% and the “Δ FL 100 μM” value [2] is reported as less than 1%. For the same compound, the “Δ FL 1 mM” value [2] was less than 1%.

In the case of `OC[C@H]1O[C@@](CO)(O[C@H]2O[C@H](CO)[C@@H](O)[C@H](O)[C@H]2O)[C@@H](O)[C@@H]1O`, the “Δ FL 100 μM” value [1] is reported as less than 1%, the “Δ FL 1 mM” value [1] is reported as less than 1% and the “Δ FL 100 μM” value [2] is reported as less than 1%. For the same compound, the “Δ FL 1 mM” value [2] was less than 1%.

For `OC[C@H]1O[C@H](O[C@H]2[C@H](O)[C@@H](O)[C@H](O)O[C@@H]2CO)[C@H](O)[C@@H](O)[C@@H]1O`, the “Δ FL 100 μM” value [1] was 100%, the “Δ FL 1 mM” value [1] was 100% and the “Δ FL 100 μM” value [2] was 60%. The “Δ FL 1 mM” value [2] was 100%.

For `O=C[C@@H](O)[C@H](O)[C@H](O)CO`, the “Δ FL 100 μM” value [1] was less than 1%, the “Δ FL 1 mM” value [1] was less than 1% and the “Δ FL 100 μM” value [2] was less than 1%. The “Δ FL 1 mM” value [2] was less than 1%.

Source: patent US7435386B2, “Reagentless and reusable biosensors with tunable differential binding affinities and methods of making” (dated 2008)
